## Measured affinities in a library of Ab-14 light chain variants

All variants were tested on one target, the spike HR2 peptide PDVDLGDISGINAS (SARS-CoV-2).

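The parent was found by panning a naive human phage display library on the peptide. These sequences belong to a second round, designed from the earlier measurements on random variants of the parent. Several design methods are mixed in this list. The assay is AlphaSeq: two haploid yeast populations carry antibody and antigen on their surface. Pairs that bind mate more often; barcode pairs of the diploids are counted by sequencing. The ratio of observed to expected reads was calibrated, replicate by replicate, on BCL2-family standards whose Kd was known from biolayer interferometry. Mating was done six times.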

Each scFv is VH, the linker GGGGSGGGGSGGGGS, VL, as in the parent Ab-14, and differs from it in the CDRs of the light chain only.
VH: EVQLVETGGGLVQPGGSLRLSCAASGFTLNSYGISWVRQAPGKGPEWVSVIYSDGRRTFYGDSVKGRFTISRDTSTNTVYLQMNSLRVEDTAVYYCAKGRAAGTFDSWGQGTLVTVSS
VL: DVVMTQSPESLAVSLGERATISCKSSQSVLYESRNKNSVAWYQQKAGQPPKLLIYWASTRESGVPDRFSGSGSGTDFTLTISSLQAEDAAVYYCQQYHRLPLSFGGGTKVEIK

Variants are written as CDR1, CDR2 and CDR3 of the light chain (limits as in the source). Parent: KSSQSVLYESRNKNSVA, WASTRES, QQYHRLPLS.
Variants here have at most six changes.
Scale: log10 of Kd in nM, estimated from mating counts; low values are strong binders.
Where no diploid with the target was found in that replicate, the entry reads "nd": below detection, most likely a poor binder, though not proof of it.
In the paper, a design with two or fewer of six values counts as a poor binder.
Three control strains display no target. For all light chain designs, 4% of the pairings with them gave a signal, with a median of 2.64 and one signal in twenty below 1.59, so weak values seen in few replicates may be background.
Of ten entries with the parent sequence, four were seen in most replicates (averages 0.34 to 2.37), three in one and three in none, so single entries are noisy.
The range of this assay differs from that of the first round, and the authors advise against merging the two.

With KLSQSNGYESRNKNSVA / NASTRES / QQYHRLPLS the result was -0.09, -0.36, -0.46, -0.46, -0.49, -0.33.
With KSSISGLYESRNTNSVA / EASTRES / QQYHRLPLS the result was 0.26, 0.13, -0.03, -0.06, -0.03, 0.19.
With KSQQSQLYESRNKNSVA / NASTRES / QQYHRLPLS the result was 0.33, 0.14, 0.01, -0.10, -0.14, 0.16.
With KVSWSVLYESRNKNSVA / DASTRES / QQYHRLPLS the result was -0.18, -0.19, -0.24, -0.40, -0.25, -0.10.
With KLSQSMLYESRNSNSVA / DASTRES / QQYHRLPLS the result was -0.31, -0.39, -0.52, -0.48, -0.24, -0.30.
With KYSQVYLYESRNKNSVA / GASTRES / QQYHRLPLS the result was 0.19, 2.78, 1.23, -0.33, 1.15, 0.65.
With KTPQGVLYESRNKNSVA / GASVRES / QQYHRLPLS the result was -0.15, -0.38, -0.31, -0.35, -0.35, -0.45.
With KVPQSHLYESRNKNSVA / EASTRES / QQYHRLPLS the result was -0.15, -0.17, -0.14, -0.45, -0.32, -0.24.
With KISQSELYSSRNKNHVA / WASTRES / QQYHRLPLS the result was 0.77, 1.36, 1.01, 0.70, 0.88, 0.88.
With KYSQAFLYESRNKNSVA / DANTRES / QQYHRLPLS the result was 0.12, -0.14, -0.10, -0.21, -0.03, 0.23.
With KMQQSELYESRNKNSVA / NASQRLS / QQYHRLPLS the result was 0.22, -0.06, 0.01, -0.21, 0.04, 0.31.
With KLPQSVLYESRMKNSVA / NASTRMS / QQYHRLPLS the result was 0.04, -0.08, 0.00, -0.20, 0.03, -0.02.
With KSYQSVLYESRDKNAVA / AASTRES / QQYHRLDLS the result was nd, nd, nd, nd, nd, nd.
With KSSQHVLYESRNKNHVA / AASTRES / QQYHRLPLS the result was 1.56, 1.38, 0.55, 0.57, 2.42, 1.23.
With KISQSVLFEPRNKNSVA / DASTRES / QQYHRLPLS the result was 0.20, 0.22, 0.14, -0.03, -0.04, 0.14.
With KSSQSVFTESRNKNSVA / FASTRES / QHYHRLPLS the result was nd, nd, nd, nd, nd, nd.
With KLSQSELYESRWKNSVA / GASQRES / QQYHRLPLS the result was 0.05, 0.25, 0.61, 0.27, 0.36, 0.69.
With KLPQSVLYEERNKNSVA / NASQRES / QQYHRLPLS the result was -0.42, -0.51, -0.65, -0.61, -0.56, -0.36.
With KSSQSVLYESRNKNSVA / NASTRES / QQYHPLPLS the result was 3.26, 0.91, 0.69, 1.82, 0.85, 1.63.
With KSFQGVLYESRNKNSVA / GASTRES / QQYHRLPLI the result was 0.82, 0.50, 0.84, 0.74, 0.43, 0.66.
With RSSQSVLYESRNKNSVA / EASTRES / QQYHRLPLS the result was 0.24, 0.21, 0.24, 0.08, 0.41, 0.27.
With KSNQSVLEESRNKNSVA / WASTRES / QQYHRLPLS the result was nd, nd, 1.91, 1.48, nd, nd.
With KFSQSWLYESRNSNSVA / NASQRES / QQYHRLPLS the result was 0.00, -0.21, -0.35, -0.21, -0.11, -0.12.
With KVSQSVLYESRNKNSVA / DASTRES / QQYHRLPLS the result was -0.04, 0.23, 0.01, -0.21, -0.05, -0.04.
With KSDRSVLYESRNKNSVA / WASTRES / QTYHKLPLS the result was nd, 2.88, 3.82, nd, 1.83, nd.
With KSSQSVLYESRNKNSVA / WASTRES / QQYHRLPES the result was 4.20, nd, nd, nd, nd, nd.
With KFSQSQLYESRNKNSVA / NASTRLS / QQYHRLPLS the result was 0.19, 0.10, 0.54, 0.06, 0.21, 0.36.
With KSAQSDLYESRNFNSVA / AASTRES / QQYHRLPLS the result was 0.72, 0.61, 0.63, 0.79, 0.74, 0.85.
With KLEQSVLYESRNKNSVA / NASTRMS / QQYHRLPLS the result was 0.10, -0.02, -0.14, -0.13, -0.10, 0.13.
With KLSQSVLYESRNKNSVA / GASTRES / QNYHRLPLS the result was -0.09, -0.17, -0.32, -0.10, 0.15, -0.02.
With KLSQSWGYESRNKNSVA / EASTRES / QQYHRLPLS the result was 0.03, 0.02, 0.03, -0.10, -0.20, -0.13.
With KSSQSVLTESRNKNSVA / WASTHES / QMYHRLPLS the result was nd, nd, nd, nd, nd, nd.
With KSSQSVLQESRNKNSVA / EASTRES / QQYHRLPLS the result was -0.05, -0.31, -0.31, -0.48, -0.12, -0.33.

Extract of 5 entries:

| CDR-L1 | CDR-L2 | CDR-L3 | replicates, log10 nM |
|---|---|---|---|
| KVPQSHLYESRNKNSVA | EASTRES | QQYHRLPLS | -0.15, -0.17, -0.14, -0.45, -0.32, -0.24 |
| KFSQSWLYESRNSNSVA | NASQRES | QQYHRLPLS | 0.00, -0.21, -0.35, -0.21, -0.11, -0.12 |
| KSYQSVLYESRDKNAVA | AASTRES | QQYHRLDLS | nd, nd, nd, nd, nd, nd |
| KISQSELYSSRNKNHVA | WASTRES | QQYHRLPLS | 0.77, 1.36, 1.01, 0.70, 0.88, 0.88 |
| KLEQSVLYESRNKNSVA | NASTRMS | QQYHRLPLS | 0.10, -0.02, -0.14, -0.13, -0.10, 0.13 |

Data: MIT Lincoln Laboratory AlphaSeq set, Li et al. 2023, doi:10.1038/s41467-023-39022-2, as distributed in FLAb.